Data on one compound can be found in ChEMBL document CHEMBL4507317, “Data for DCP probe BAY-899” (2021).

A word on the residual activity: it is the signal under treatment as a percentage of the control signal.

The structures appear in SMILES notation.

The test system of this assay is Receptor-type tyrosine-protein kinase FLT3 (Homo sapiens), P36888 [K663Q]. As to conditions: Compound concentration 1000.0 nM.

With `O=C(Nc1ccc(Oc2ccc(F)cc2)cc1)N1CCc2ncccc2[C@H]1c1ccc(F)cc1` [BAY-897], the residual activity is 41%.
